# Molecular target: Type-1 angiotensin II receptor (Oryctolagus cuniculus) (UniProt P34976)
# The chains behind the UniProt entries cited, without tags or fusion partners.
# UniProt P34976, whole entry: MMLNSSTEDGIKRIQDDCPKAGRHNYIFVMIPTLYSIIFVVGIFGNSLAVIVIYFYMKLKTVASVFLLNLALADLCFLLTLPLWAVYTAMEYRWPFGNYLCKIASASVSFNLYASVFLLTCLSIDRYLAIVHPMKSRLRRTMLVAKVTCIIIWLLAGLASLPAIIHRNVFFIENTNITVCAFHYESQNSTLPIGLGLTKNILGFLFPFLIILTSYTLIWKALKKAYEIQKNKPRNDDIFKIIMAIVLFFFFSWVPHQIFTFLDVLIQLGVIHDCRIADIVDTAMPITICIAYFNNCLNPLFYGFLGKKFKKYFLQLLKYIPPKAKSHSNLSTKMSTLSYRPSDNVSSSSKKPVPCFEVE
# Experiment: Angiotensin II receptor, type 1 antagonist activity in rabbit isolated thoracic aorta
# Format: functional, tissue-based
structure (smiles),measurement,value
CCCCc1nc(Cl)c(C(=O)O)n1Cc1ccc2oc(-c3ccccc3-c3nnn[nH]3)c(Br)c2c1,pKB,9.8
